Amino acid sequences for entries named in this document (tags omitted).
UniProt P30530, whole entry: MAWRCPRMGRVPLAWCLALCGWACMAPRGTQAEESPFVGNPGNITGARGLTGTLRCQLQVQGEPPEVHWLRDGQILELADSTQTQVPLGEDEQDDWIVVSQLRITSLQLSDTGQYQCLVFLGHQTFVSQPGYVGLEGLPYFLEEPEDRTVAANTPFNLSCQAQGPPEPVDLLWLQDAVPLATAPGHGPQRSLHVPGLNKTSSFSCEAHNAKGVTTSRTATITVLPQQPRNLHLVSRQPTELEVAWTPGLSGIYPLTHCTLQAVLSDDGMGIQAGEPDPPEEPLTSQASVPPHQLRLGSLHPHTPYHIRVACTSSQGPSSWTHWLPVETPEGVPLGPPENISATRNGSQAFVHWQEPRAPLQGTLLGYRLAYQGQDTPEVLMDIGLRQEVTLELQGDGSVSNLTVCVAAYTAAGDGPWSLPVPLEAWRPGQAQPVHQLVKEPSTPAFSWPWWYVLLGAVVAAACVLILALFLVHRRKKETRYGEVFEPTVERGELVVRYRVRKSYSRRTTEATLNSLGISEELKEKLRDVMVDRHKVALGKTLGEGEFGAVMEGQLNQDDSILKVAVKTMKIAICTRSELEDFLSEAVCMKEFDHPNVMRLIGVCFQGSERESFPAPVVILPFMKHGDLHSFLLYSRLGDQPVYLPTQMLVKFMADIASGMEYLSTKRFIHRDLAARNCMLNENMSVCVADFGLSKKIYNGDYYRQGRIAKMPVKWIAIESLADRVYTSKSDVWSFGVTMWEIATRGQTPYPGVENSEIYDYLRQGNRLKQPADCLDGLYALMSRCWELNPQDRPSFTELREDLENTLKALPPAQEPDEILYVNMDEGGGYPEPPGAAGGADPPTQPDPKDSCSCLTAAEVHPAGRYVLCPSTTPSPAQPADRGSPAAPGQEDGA
UniProt P04626, whole entry Y1005F/Y1023F/Y1112F/Y1127F/Y1139F/Y1196F/Y1221F/Y1222F/Y1248F: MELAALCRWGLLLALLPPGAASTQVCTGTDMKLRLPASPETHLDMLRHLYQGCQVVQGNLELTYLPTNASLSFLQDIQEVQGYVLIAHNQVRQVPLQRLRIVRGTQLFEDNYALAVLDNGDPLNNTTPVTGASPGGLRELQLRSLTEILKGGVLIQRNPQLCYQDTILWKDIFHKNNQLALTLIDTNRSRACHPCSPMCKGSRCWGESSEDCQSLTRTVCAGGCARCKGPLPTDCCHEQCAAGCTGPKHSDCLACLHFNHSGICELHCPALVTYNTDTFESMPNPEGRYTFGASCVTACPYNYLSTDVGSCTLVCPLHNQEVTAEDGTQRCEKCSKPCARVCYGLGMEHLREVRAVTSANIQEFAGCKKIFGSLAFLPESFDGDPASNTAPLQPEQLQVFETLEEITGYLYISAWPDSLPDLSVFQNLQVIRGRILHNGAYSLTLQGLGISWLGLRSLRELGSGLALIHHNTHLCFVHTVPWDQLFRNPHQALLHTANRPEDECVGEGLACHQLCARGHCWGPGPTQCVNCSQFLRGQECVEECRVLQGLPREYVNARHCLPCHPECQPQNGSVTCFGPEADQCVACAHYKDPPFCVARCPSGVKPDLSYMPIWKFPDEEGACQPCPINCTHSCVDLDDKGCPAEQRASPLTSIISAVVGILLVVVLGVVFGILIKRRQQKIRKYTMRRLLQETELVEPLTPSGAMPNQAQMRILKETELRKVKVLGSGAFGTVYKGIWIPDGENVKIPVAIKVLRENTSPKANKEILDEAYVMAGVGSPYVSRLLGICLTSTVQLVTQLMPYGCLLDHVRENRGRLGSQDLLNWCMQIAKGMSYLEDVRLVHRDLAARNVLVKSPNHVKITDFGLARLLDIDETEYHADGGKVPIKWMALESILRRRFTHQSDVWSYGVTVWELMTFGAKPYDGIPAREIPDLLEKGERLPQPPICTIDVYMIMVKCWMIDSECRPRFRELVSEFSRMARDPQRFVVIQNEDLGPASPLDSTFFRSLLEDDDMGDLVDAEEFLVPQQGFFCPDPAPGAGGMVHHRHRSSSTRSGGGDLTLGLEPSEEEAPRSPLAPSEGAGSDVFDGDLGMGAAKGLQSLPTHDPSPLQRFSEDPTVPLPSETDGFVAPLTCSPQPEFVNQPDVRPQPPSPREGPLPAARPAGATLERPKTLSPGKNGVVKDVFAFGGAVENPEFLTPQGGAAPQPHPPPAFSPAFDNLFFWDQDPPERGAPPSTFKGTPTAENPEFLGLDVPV

According to patent publication US20190119284A1, “ErbB Inhibitors and Uses Thereof” (The Regents of the University of California, priority 2016, published 2019):

What was measured:
Axl+ Ba/F3 cells = Axl+ Ba/F3 cells (Homo sapiens, UniProt P30530); assay: Ba/F3 proliferation assay, Axl+; details: read-out: Ba/F3 line IC50, Axl+; Tables 7 and 8
[1] = system: parental Ba/F3 cells + IL-3; assay: Ba/F3 proliferation assay, Parental + IL-3; details: read-out: Ba/F3 line IC50, Parental + IL-3; Tables 7 and 8
[2] = biological target: 2YF/3wt + NRG Ba/F3 cells (HER2YF/HER3wt) (Homo sapiens, UniProt P04626, Y1005F/Y1023F/Y1112F/Y1127F/Y1139F/Y1196F/Y1221F/Y1222F/Y1248F, cells depend on it); assay: Ba/F3 proliferation assay, 2YF/3wt + NRG; details: read-out: Ba/F3 line IC50, HER2YF/HER3 + NRG; Tables 7 and 8
HER2+/2VE Ba/F3 line = assay: Ba/F3 proliferation assay, HER2+/2VE; details: read-out: Ba/F3 line IC50, HER2+/2VE; Tables 7 and 8

- GI50 (Axl+ Ba/F3 cells): > 10 µM
- GI50 [2]: > 10 µM
- IC50 (HER2+/2VE Ba/F3 line): > 10 µM
Compound: COc1ccc(C2CCCCC2)cc1Nc1ncnc2[nH]nc(-c3ccsc3)c12
- IC50 [1]: > 10 µM
